In patent publication US11957661B2, “JAK1 pathway inhibitors for the treatment of vitiligo” (Incyte Corporation, priority 2020, dated 2024):
pIC50: −log10 of the molar value.

Molecular target: human JAK1 (Homo sapiens, UniProt P23458)
Assay: In vitro JAK kinase assay (HTRF, Example A)
Type: biochemical
Details: 1 mM ATP

pIC50: > 8.00
Compound: CN(C)Cc1cc(F)cc(OC2CCN(CC(CC#N)n3cc(-c4ncnc5[nH]ccc45)cn3)CC2)c1 (single isomer, unassigned) [Compound 14, 4-(4-{3-[(dimethylamino)methyl]-5-fluorophenoxy}piperidin-1-yl)-3-[4-(7H-pyrrolo[2,3-d]pyrimidin-4-yl)-1H-pyrazol-1-yl]butanenitrile]
